The numbers were not newly measured in paper PMC11320581 (ACS Infectious Diseases, 2024), which cites them from elsewhere.

Chains of the proteins cited; added tags and fusions are not shown. Lines headed by an entry give the natural chain unless they say otherwise; changes in a name come on top.
UniProt P22118, whole entry, stated change not applied: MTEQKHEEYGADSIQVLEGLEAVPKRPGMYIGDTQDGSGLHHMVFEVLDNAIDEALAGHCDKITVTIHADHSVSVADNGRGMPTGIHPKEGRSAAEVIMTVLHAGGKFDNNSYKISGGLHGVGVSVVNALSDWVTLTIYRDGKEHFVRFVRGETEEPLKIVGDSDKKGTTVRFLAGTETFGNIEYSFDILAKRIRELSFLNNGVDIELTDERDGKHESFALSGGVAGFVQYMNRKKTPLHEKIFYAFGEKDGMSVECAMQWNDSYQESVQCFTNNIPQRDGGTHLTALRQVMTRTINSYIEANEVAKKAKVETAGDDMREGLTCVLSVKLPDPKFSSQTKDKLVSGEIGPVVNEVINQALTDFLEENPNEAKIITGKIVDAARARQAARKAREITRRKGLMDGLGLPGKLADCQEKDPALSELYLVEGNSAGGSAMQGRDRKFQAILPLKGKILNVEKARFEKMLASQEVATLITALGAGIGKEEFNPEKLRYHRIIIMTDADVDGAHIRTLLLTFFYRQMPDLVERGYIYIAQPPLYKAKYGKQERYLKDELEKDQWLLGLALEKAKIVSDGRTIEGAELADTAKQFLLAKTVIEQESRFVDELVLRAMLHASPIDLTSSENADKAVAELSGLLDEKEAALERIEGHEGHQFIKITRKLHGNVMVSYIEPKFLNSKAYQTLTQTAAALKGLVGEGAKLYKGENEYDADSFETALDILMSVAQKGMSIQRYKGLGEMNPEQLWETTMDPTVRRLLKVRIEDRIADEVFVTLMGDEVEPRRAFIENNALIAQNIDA
UniProt P48371: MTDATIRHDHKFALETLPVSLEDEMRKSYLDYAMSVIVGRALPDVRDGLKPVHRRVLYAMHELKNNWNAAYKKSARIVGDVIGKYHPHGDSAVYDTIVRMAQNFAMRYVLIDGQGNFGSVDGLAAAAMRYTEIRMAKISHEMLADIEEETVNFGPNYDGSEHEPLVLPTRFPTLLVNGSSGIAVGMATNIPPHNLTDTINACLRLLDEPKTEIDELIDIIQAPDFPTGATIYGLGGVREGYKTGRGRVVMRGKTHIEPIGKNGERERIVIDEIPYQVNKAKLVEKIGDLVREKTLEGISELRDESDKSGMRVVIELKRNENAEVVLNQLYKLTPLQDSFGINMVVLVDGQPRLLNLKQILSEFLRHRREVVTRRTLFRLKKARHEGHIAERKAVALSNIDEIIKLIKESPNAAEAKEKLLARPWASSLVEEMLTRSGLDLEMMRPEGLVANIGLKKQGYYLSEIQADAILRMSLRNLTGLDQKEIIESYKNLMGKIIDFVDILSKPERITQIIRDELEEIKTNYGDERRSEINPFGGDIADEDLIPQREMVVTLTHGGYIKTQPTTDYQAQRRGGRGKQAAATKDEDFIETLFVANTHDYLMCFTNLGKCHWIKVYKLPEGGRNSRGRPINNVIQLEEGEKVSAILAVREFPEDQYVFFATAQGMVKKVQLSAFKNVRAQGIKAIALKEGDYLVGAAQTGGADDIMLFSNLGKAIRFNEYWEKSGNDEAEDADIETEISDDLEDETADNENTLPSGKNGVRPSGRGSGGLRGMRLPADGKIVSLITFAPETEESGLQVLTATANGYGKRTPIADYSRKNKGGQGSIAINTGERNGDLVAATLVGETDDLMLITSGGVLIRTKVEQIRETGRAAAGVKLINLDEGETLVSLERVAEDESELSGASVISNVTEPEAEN

This data set addresses N. gonorrhoeae gyrase GyrA^S91F/D95G (Neisseria gonorrhoeae, UniProt P22118+P48371, D95G/S91F). To be noted: cited from earlier work.

In the case of `C[C@@H]1CN2c3c(cc4c(N5C(=O)OC[C@@H]5C)noc4c3F)CC3(C(=O)NC(=O)NC3=O)[C@H]2[C@H](C)O1` [zoliflodacin, Zoliflodacin], the “effect of the two mutations on potency against DNA supercoiling and cleavage reactions” value is “minimally affected”.
